Drawing on ChEMBL document CHEMBL1127932, “6-isoxazolinyl and isoxazolidinyl substituted quinazolinones as angiotensin II receptor antagonists” (Bioorg Med Chem Lett, 1994), this text covers IC50 for 3 molecules.

Protein sequences, listed by entry. Tags and fused reporters are not part of them.
UniProt P25104, whole entry: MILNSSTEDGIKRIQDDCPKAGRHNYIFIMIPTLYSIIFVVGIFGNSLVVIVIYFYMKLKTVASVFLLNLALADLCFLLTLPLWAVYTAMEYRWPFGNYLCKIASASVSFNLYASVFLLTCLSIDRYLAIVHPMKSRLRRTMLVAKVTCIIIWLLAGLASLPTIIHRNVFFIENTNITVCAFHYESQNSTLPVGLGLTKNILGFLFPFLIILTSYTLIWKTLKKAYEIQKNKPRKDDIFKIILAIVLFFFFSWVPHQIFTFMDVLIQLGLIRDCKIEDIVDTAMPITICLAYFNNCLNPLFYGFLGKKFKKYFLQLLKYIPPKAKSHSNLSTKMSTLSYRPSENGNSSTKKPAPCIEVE

This assay concerns the target Type-1 angiotensin II receptor (Bos taurus, UniProt P25104). The experiment in a line: In vitro Angiotensin II receptor antagonism in bovine adrenal cortex tissue. Type of assay: functional, tissue-based.
As for `CCCCc1nc2ccc([C@]3(C)C[C@H]4CCCCN4O3)cc2c(=O)n1Cc1ccc(-c2ccccc2-c2nnn[nH]2)cc1`, the IC50 (usually the point on the concentration scale where inhibition reaches its midpoint) was determined as 0.047 µM. The value for `CCCCc1nc2ccc([C@@]3(C)C[C@H]4CCCCN4O3)cc2c(=O)n1Cc1ccc(-c2ccccc2-c2nnn[nH]2)cc1` was 0.022 µM; that for `CCCCc1nc2ccc([C@@H]3C[C@H]4CCCCN4O3)cc2c(=O)n1Cc1ccc(-c2ccccc2-c2nn[nH]n2)cc1` was 0.038 µM.
